# Yeast mating assay 1: variants of the scFv Ab-14

Reference: Engelhart et al. 2022, doi:10.1038/s41597-022-01779-4. File: FLAb, binding data.

The target is the same throughout: PDVDLGDISGINAS, from the HR2 region of SARS-CoV-2 spike.

Ab-14 is the parent antibody, in scFv form: VH, then a (GGGGS)3 linker, then VL. The light chain is unchanged in all variants.
VH: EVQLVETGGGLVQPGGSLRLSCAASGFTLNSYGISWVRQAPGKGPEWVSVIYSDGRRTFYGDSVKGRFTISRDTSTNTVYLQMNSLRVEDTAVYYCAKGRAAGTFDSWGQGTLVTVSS
VL: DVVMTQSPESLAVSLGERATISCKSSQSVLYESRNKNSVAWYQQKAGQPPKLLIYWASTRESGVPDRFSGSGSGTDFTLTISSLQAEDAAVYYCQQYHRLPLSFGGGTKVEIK

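Variants in AAYL49 differ from the parent at up to three CDR positions; double and triple changes were sampled at random. The scFvs were displayed on barcoded MATa yeast, the peptide on MATalpha yeast. Pairs that bind mate more often; barcode pairs of the diploids are counted by sequencing. A regression on co-assayed BCL2-family reference pairs converts the normalised counts of each replicate to an apparent Kd. Each pool was mated in three replicate cultures.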

Each variant is given by its three heavy chain CDRs, as the data file delimits them; those of the parent are GFTLNSYGIS, VIYSDGRRTFYGDSVK, GRAAGTFDS.
This list gathers variants with a substitution at Y52 (VH, numbered from residue 1).
Scale: log10 of Kd in nM, estimated from mating counts; low values are strong binders.
A mean of the replicates is given; it leaves out those without a signal.
"nd" means that the variant was in the library but no mating with the target was seen in that replicate; the authors take this as a sign of poor binding, and no number exists.
Entries are sorted by rising average, undetected variants last.
For reference, the parent read 0.65 as the reference entry and 4.11 (one replicate of three) as a member of this library.
As a blank, each scFv also met three strains without target: over library AAYL49, 15% of these pairings were detected, typically at 4.06 and seldom below 2.83.

For GFTLNSYGIR / VIASDGRRTFYGDCVK / GRAAGTFDS, the assay gave nd, 3.58, nd. The variant GFTLNSYGIS / VISSDGKRTFYGDSVK / GRAADTFDS gave 4.74, 3.23, 3.22 (mean 3.73). For GYTLNSYGIS / VINSDGRPTFYGDSVK / GRAAGTFDS, the assay gave nd, 3.67, 3.79 (mean 3.73). For GFTLNSYGIS / VIWFDGRRTFYGDSVK / GRAAETFDS, the assay gave nd, nd, 4.22. The variant GFTLASHGIS / VIESDGRRTFYGDSVK / GRAAGTFDS showed 4.03, 4.56, 4.32 (mean 4.30). The variant GFTLESYGIS / VINIDGRRTFYGDSVK / GRAAGTFDS showed nd, 4.80, 3.81 (mean 4.31). The variant GFTLNSYGIS / VIVSDGRRTFYGDSVY / GRAAGTFCS gave nd, 3.07, 6.15 (mean 4.61). The variant GFTLNSYGIS / VICTDGRRTFIGDSVK / GRAAGTFDS gave 4.67, nd, nd. With GFTLNSFGIS / MIGSDGRRTFYGDSVK / GRAAGTFDS the result was 4.58, 5.94, 4.21 (mean 4.91).

With GFTLNSYGIS / VIIFDGRRTVYGDSVK / GRAAGTFDS the result was nd, nd, 5.23. With GFTLNSYGIS / VIDSDWRYTFYGDSVK / GRAAGTFDS the result was 5.87, 4.93, 5.24 (mean 5.34). The variant GFTLNSYGIS / VICSDGRRTFYGDWVK / GRADGTFDS gave 5.46, nd, nd. With GFTLNSYGIS / VIISDGVWTFYGDSVK / GRAAGTFDS the result was 5.74, nd, nd. The variant GFTGWSYGIS / VIASDGRRTFYGDSVK / GRAAGTFDS gave nd, nd, nd. The variant GFTLNSYVIS / CISSDGRRTFYGDSVK / GRAAGTFDS gave nd, nd, nd. The variant GFTLNSYGIS / VIKSDGRRTFYGDSVK / GRAALTFDS gave nd, nd, nd. For GFTLNSYGIS / VIESDGRREFYGDDVK / GRAAGTFDS, the assay gave nd, nd, nd. The variant MFTLNSYGIS / VIVSDGRRTFYGDSVK / GRAAGTIDS showed nd, nd, nd.

With GFTLNSYGIS / YIVSDGRRTFYGDSVK / GKAAGTFDS the result was nd, nd, nd. With GFTLNSYGIS / VIWSDGERTFYGDSVK / IRAAGTFDS the result was nd, nd, nd. The variant GFTLNSYGIS / VISSDGRSTFYGDSRK / GRAAGTFDS gave nd, nd, nd. The variant GFTLNSYGIS / VICSDGRRTFYGDSVK / GRAAGTFDS gave nd, nd, nd. The variant GFTLNSYGMS / VIQSDGRRTFYGDSVK / GRAAGTFDS showed nd, nd, nd. The variant GFTLNSYGIS / VIPSDGRRTFYGDSVK / GRAVGTFDS gave nd, nd, nd. The variant QFTLNSYGIS / PIKSDGRRTFYGDSVK / GRAAGTFDS showed nd, nd, nd.

For reference, 2 entries of the list once more:

| CDR-H1 | CDR-H2 | CDR-H3 | log10 Kd (nM) by replicate | mean log10 Kd (nM) |
|---|---|---|---|---|
| GFTLNSYGIS | YIVSDGRRTFYGDSVK | GKAAGTFDS | nd, nd, nd | nd |
| GFTLNSYGIS | VICSDGRRTFYGDWVK | GRADGTFDS | 5.46, nd, nd | 5.46 |